Earlier results, collected in article PMC5708649, “A novel Porphyromonas gingivalis enzyme: An atypical dipeptidyl peptidase III with an ARM repeat domain” (PLoS ONE, 2017).
Where a SMILES comes first, the peptide text is derived from it. The star is where a group is joined. βNA = c1ccc2cc(N*)ccc2c1

Target: T1, human DPP III (Homo sapiens, UniProt Q9NY33)
T1 sequence (Q9NY33 1-737): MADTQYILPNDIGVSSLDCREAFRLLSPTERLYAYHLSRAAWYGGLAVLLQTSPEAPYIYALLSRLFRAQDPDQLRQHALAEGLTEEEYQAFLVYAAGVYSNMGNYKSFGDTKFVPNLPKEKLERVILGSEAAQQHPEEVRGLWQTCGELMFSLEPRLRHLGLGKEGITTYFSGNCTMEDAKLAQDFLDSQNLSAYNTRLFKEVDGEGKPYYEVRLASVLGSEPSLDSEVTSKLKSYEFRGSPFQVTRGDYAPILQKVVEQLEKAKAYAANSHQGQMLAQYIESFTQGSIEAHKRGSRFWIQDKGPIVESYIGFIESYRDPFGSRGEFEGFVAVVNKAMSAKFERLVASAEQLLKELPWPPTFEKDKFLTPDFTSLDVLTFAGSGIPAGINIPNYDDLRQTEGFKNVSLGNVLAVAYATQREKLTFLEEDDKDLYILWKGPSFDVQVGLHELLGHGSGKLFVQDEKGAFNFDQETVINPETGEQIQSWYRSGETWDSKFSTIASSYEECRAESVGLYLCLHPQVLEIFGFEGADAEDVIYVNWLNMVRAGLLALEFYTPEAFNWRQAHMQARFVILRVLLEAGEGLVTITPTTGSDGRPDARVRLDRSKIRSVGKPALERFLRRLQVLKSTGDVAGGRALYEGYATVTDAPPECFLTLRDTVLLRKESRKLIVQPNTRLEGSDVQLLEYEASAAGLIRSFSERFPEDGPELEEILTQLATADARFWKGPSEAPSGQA
Details: difference entirely on account of Km; cited from earlier work

N=C(N)NCCC[C@H](NC(=O)[C@@H](N)CCCNC(=N)N)C(=O)Nc1ccc2ccccc2c1 [Arg-Arg-2NA, Arg-Arg-2-naphthylamide] (H-Arg-Arg-βNA)
substrate preference of human DPP III (in words): prefers Arg2-2NA over Arg2-AMC
